{"source": "patent US20160250208A1", "about": "“TREATING ORGAN-SPECIFIC T CELL MEDIATED AUTOIMMUNE DISEASES” (UNIVERSITY OF MASSACHUSETTS, priority 2013, published 2016)", "origin": "cited, not measured here", "key": {"[1]": {"system": "T1D patients", "settings": "Orban et al., Lancet 2011; cited from earlier work"}, "[2]": {"system": "NOD mice", "settings": "Lenschow et al., J Exp Med. 1995; cited from earlier work"}}}
{"substance": "Abatacept: a fusion protein that binds to and sequesters B7", "values": [{"measurement": "outcome in T1D patients", "setting": "[1]", "result": "preservation of beta-cell mass for over two years"}, {"measurement": "protection of NOD mice from diabetes", "setting": "[2]", "result": "protected from diabetes"}]}
